Where two headings read alike, the source gives them in different places.
Tests used:
MAO-A = MAO-A (Rattus norvegicus, UniProt P21396)
Description: (§1) On days 8-9, rats were trained to adjust to the peroral (“p.o.”) procedure by being fed with vehicle. […] The administration began on day 10 and continued throughout the entire procedure. Rats were fed at least one hour before being put into experimental chambers, except during preexposure and conditioning days (days 19 and 20) during which rats were fed exactly two hours before being put into experimental chambers.

Protein sequences, listed by entry. Tags and fused reporters are not part of them.
UniProt P21396, whole entry: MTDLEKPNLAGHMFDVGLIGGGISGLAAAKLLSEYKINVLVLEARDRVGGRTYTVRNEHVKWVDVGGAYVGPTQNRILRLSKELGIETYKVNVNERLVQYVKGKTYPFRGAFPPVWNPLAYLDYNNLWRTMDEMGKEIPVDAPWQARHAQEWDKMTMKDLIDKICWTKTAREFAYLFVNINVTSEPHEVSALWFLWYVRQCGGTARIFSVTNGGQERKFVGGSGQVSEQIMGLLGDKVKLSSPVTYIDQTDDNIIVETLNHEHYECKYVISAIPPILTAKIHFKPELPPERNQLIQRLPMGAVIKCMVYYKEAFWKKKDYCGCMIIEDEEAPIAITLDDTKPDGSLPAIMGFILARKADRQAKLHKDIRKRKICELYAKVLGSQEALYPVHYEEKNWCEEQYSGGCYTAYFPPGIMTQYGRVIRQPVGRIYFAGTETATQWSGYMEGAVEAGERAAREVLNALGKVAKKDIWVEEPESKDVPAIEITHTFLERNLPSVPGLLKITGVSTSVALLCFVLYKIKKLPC
UniProt P19643, whole entry: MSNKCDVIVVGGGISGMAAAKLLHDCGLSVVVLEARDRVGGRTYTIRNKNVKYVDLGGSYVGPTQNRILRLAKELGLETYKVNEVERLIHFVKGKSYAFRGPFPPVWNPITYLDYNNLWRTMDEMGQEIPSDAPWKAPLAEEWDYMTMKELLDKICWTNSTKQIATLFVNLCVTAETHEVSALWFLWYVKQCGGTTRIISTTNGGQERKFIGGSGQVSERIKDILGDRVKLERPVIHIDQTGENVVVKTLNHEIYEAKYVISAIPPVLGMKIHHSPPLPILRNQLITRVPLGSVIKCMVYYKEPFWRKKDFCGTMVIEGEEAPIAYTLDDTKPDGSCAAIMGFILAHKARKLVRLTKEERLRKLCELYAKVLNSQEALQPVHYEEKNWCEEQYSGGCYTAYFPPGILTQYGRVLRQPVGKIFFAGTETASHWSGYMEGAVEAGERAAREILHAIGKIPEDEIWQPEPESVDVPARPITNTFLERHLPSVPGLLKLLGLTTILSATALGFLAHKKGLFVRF

MAO-B = MAO-B (Rattus norvegicus, UniProt P19643)
Description: as §1

[1] = MK-801 and ladostigil tartrate 25 mg/kg p.o. chronic
[2] = MK-801 and ladostigil tartrate 37.5 mg/kg p.o. chronic
[3] = saline and ladostigil tartrate 25 mg/kg p.o. chronic
[4] = saline and ladostigil tartrate 37.5 mg/kg p.o. chronic

With “R(+)-6-(N-methyl, N-ethyl-carbamoyloxy)-N′-propargyl-1-aminoindan ½ tartrate [ladostigil tartrate]” the “Brain MAO-A % inhibition” value (MAO-A; [1]) was 75%, the “Brain MAO-A dpm/sd” value (MAO-A; [1]) was 2366 ± 291 dpm and the “Brain MAO-A % inhibition” value (MAO-A; [2]) was 84%. For the same substance, the “Brain MAO-A dpm/sd” value (MAO-A; [2]) was 1494 ± 387 dpm, the “Brain MAO-A % inhibition” value (MAO-A; [3]) was 74% and the “Brain MAO-A dpm/sd” value (MAO-A; [3]) was 2459 ± 301 dpm. For the same substance, the “Brain MAO-A % inhibition” value (MAO-A; [4]) was 83%, the “Brain MAO-A dpm/sd” value (MAO-A; [4]) was 1582 ± 276 dpm and the “Brain MAO-B % inhibition” value (MAO-B; [1]) was 83%. For the same substance, the “Brain MAO-B dpm/sd” value (MAO-B; [1]) was 1485 ± 241 dpm, the “Brain MAO-B % inhibition” value (MAO-B; [2]) was 89% and the “Brain MAO-B dpm/sd” value (MAO-B; [2]) was 1007 ± 296 dpm. For the same substance, the “Brain MAO-B % inhibition” value (MAO-B; [3]) was 84%, the “Brain MAO-B dpm/sd” value (MAO-B; [3]) was 1501 ± 183 dpm and the “Brain MAO-B % inhibition” value (MAO-B; [4]) was 89%. For the same substance, the “Brain MAO-B dpm/sd” value (MAO-B; [4]) was 1056 ± 171 dpm.
